Source: US8614290B2, “Cancer imaging and treatment” (Technische Universitat Munchen, priority 2007, dated 2013)

By UniProt entry, the sequences of proteins in these tests, tags left out.
UniProt P61073, whole entry: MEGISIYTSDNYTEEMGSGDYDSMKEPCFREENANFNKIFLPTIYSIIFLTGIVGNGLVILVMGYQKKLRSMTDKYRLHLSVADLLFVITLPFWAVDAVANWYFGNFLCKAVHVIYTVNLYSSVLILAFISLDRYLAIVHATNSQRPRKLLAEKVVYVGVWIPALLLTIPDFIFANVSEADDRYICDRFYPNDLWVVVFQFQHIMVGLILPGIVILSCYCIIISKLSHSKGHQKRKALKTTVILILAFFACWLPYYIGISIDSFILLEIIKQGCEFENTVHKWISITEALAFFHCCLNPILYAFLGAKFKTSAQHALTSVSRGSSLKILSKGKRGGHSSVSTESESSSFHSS

molecular target: CXCR4 (Homo sapiens, UniProt P61073); assay: Competitive receptor binding assay on Jurkat cells with 125I-CPCR4 as tracer; set-up: Jurkat cells that endogenously express the CXCR4 receptor; endogenous in cells; host or cells: Jurkat cells; conditions: not given
Method: For receptor binding assays cells were resuspended in PBS/0.2% BSA. A total of 200 μl of the suspension containing 400,000 Jurkat cells were incubated with 25 μl of the tracer solution (containing 3.1 kBq, approx. 0.1 nM) and 25 μl of the diluent or the competitor at different concentrations. […] After shaking for 2 h at room temperature, the incubation was terminated by centrifugation at 1300 rpm for 5 min. Cell pellets were washed once with cold PBS followed by a second centrifugation step. Cell bound radioactivity was determined by using a gamma counter. Experiments were repeated 2-3 times in triplicates. IC50 values of the compounds were calculated by nonlinear regression using GraphPad Prism (GraphPad Prism 4.0 Software, Inc., San Diego, Calif., USA). Each data point is the average of three determinations.

IC50 [nM]	SMILES
200 to 300	C[C@@H]1NC(=O)[C@H](Cc2ccc3ccccc3c2)NC(=O)[C@H](CCCNC(=N)N)NC(=O)[C@H](CCCNC(=N)N)NC(=O)[C@@H](Cc2ccc(O)cc2)N(C)C(=O)CNC1=O [BL70, cyc[Arg-Nal-Ala-Gly-(Me)D-Tyr-Arg]]
> 1000	C[C@@H]1NC(=O)[C@H](Cc2ccc3ccccc3c2)NC(=O)[C@H](CCCNC(=N)N)N(C)C(=O)[C@H](CCCNC(=N)N)NC(=O)[C@@H](Cc2ccc(O)cc2)N(C)C(=O)CNC1=O [BL77, cyc[(Me)Arg-Nal-Ala-Gly-(Me)D-Tyr-Arg]]
> 1000	C[C@H]1C(=O)NCC(=O)N(C)[C@H](Cc2ccc(O)cc2)C(=O)N[C@@H](CCCNC(=N)N)C(=O)N[C@@H](CCCNC(=N)N)C(=O)N(C)[C@@H](Cc2ccc3ccccc3c2)C(=O)N1C [BL99, cyc[Arg-(Me)Nal-(Me)Ala-Gly-(Me)D-Tyr-Arg]]
> 1000	C[C@H]1C(=O)NCC(=O)N(C)[C@H](Cc2ccc(O)cc2)C(=O)N[C@@H](CCCNC(=N)N)C(=O)N[C@@H](CCCNC(=N)N)C(=O)N[C@@H](Cc2ccc3ccccc3c2)C(=O)N1C [BL79, cyc[Arg-Nal-(Me)Ala-Gly-(Me)D-Tyr-Arg]]
> 1000	C[C@@H]1NC(=O)[C@H](Cc2ccc3ccccc3c2)NC(=O)[C@H](CCCNC(=N)N)NC(=O)[C@H](CCCNC(=N)N)NC(=O)[C@@H](Cc2ccc(O)cc2)N(C)C(=O)CN(C)C1=O [BL80, cyc[Arg-Nal-Ala-(Me)Gly-(Me)D-Tyr-Arg]]
> 1000	C[C@H]1C(=O)N(C)CC(=O)N(C)[C@H](Cc2ccc(O)cc2)C(=O)N[C@@H](CCCNC(=N)N)C(=O)N[C@@H](CCCNC(=N)N)C(=O)N[C@@H](Cc2ccc3ccccc3c2)C(=O)N1C [BL96, cyc[Arg-Nal-(Me)Ala-(Me)Gly-(Me)D-Tyr-Arg]]
> 1000	C[C@@H]1NC(=O)[C@H](Cc2ccc3ccccc3c2)NC(=O)[C@H](CCCNC(=N)N)N(C)C(=O)[C@H](CCCNC(=N)N)NC(=O)[C@@H](Cc2ccc(O)cc2)N(C)C(=O)CN(C)C1=O [BL98, cyc[(Me)Arg-Nal-Ala-(Me)Gly-(Me)D-Tyr-Arg]]
> 1000	C[C@@H]1NC(=O)[C@H](Cc2ccc3ccccc3c2)N(C)C(=O)[C@H](CCCNC(=N)N)NC(=O)[C@H](CCCNC(=N)N)NC(=O)[C@@H](Cc2ccc(O)cc2)N(C)C(=O)CNC1=O [BL78, cyc[Arg-(Me)Nal-Ala-Gly-(Me)D-Tyr-Arg]]
> 1000	C[C@@H]1NC(=O)[C@H](Cc2ccc3ccccc3c2)N(C)C(=O)[C@H](CCCNC(=N)N)NC(=O)[C@H](CCCNC(=N)N)NC(=O)[C@@H](Cc2ccc(O)cc2)N(C)C(=O)CN(C)C1=O [BL97, cyc[Arg-(Me)Nal-Ala-(Me)Gly-(Me)D-Tyr-Arg]]
> 1000	C[C@H]1C(=O)NCC(=O)N(C)[C@H](Cc2ccc(O)cc2)C(=O)N(C)[C@@H](CCCNC(=N)N)C(=O)N[C@@H](CCCNC(=N)N)C(=O)N[C@@H](Cc2ccc3ccccc3c2)C(=O)N1C [BL88, cyc[Arg-Nal-(Me)Ala-Gly-(Me)D-Tyr-(Me)Arg]]
> 1000	CN1C(=O)CNC(=O)[C@H](Cc2ccc3ccccc3c2)N(C)C(=O)[C@H](CCCNC(=N)N)NC(=O)[C@H](CCCNC(=N)N)NC(=O)[C@H]1Cc1ccc(O)cc1 [OD14, cyc[Arg-(Me)Nal-Gly-(Me)D-Tyr-Arg]]
> 1000	C[C@@H]1NC(=O)[C@H](Cc2ccc3ccccc3c2)N(C)C(=O)[C@H](CCCNC(=N)N)NC(=O)[C@H](CCCNC(=N)N)N(C)C(=O)[C@@H](Cc2ccc(O)cc2)N(C)C(=O)CNC1=O [BL89, cyc[Arg-(Me)Nal-Ala-Gly-(Me)D-Tyr-(Me)Arg]]
> 1000	CN1CC(=O)N(C)[C@H](Cc2ccc(O)cc2)C(=O)N[C@@H](CCCNC(=N)N)C(=O)N[C@@H](CCCNC(=N)N)C(=O)N[C@@H](Cc2ccc3ccccc3c2)C1=O [OD13, cyc[Arg-Nal-(Me)Gly-(Me)D-Tyr-Arg]]
> 1000	C[C@@H]1NC(=O)[C@H](Cc2ccc3ccccc3c2)NC(=O)[C@H](CCCNC(=N)N)NC(=O)[C@H](CCCNC(=N)N)N(C)C(=O)[C@@H](Cc2ccc(O)cc2)N(C)C(=O)CNC1=O [BL76, cyc[Arg-Nal-Ala-Gly-(Me)D-Tyr-(Me)Arg]]

SMILES	IC50 [nM]
CC(F)C(=O)NC[C@@H]1NC(=O)[C@H](Cc2ccc3ccccc3c2)NC(=O)[C@H](CCCNC(=N)N)NC(=O)[C@H](CCCNC(=N)N)NC(=O)[C@@H](Cc2ccc(O)cc2)NC1=O (stereo partly drawn) [Dap(FP)-8k, cyc[D-Tyr-Arg-Arg-Nal-Dap(FP)]]	140
N=C(N)NCCC[C@@H]1NC(=O)[C@H](CCCNC(=N)N)NC(=O)[C@@H](Cc2ccc(O)cc2)NC(=O)CNC(=O)[C@H](Cc2ccc3ccccc3c2)NC1=O [CPCR4, cyclo[D-Tyr-Arg-Arg-Nal-Gly], reference compound]	4

same assay, conditions: Table 1, Nα-monomethylated cyclic pentapeptides; read-out: IC50

SMILES	IC50 [nM]
CN1C(=O)[C@H](CCCNC(=N)N)NC(=O)[C@H](CCCNC(=N)N)NC(=O)[C@@H](Cc2ccc(O)cc2)NC(=O)CNC(=O)[C@@H]1Cc1ccc2ccccc2c1 [OD5, cyc[D-Tyr-Arg-Arg-(Me)Nal-Gly]]	894
CN1CC(=O)N[C@H](Cc2ccc(O)cc2)C(=O)N[C@@H](CCCNC(=N)N)C(=O)N[C@@H](CCCNC(=N)N)C(=O)N[C@@H](Cc2ccc3ccccc3c2)C1=O [OD7, cyc[D-Tyr-Arg-Arg-Nal-(Me)Gly]]	136
CN1C(=O)CNC(=O)[C@H](Cc2ccc3ccccc3c2)NC(=O)[C@H](CCCNC(=N)N)NC(=O)[C@H](CCCNC(=N)N)NC(=O)[C@H]1Cc1ccc(O)cc1 [OD9, cyc[(Me)D-Tyr-Arg-Arg-Nal-Gly]]	247

same assay, conditions: Table 4, Orn-Nδ and/or Orn-Nα-modified pentapeptides; read-out: IC50

SMILES	IC50 [nM]
CN(CCC[C@@H]1NC(=O)[C@@H](Cc2ccc(O)cc2)NC(=O)CNC(=O)[C@H](Cc2ccc3ccccc3c2)NC(=O)[C@H](CCCNC(=N)N)NC1=O)Cc1cccc2ccccc12 [cyc[D-Tyr-Orn(Me,N1)-Arg-Nal-Gly]]	39.7
CNCCC[C@@H]1NC(=O)[C@@H](Cc2ccc(O)cc2)NC(=O)CNC(=O)[C@H](Cc2ccc3ccccc3c2)NC(=O)[C@H](CCCNC(=N)N)NC1=O [cyc[D-Tyr-Orn(Me)-Arg-Nal-Gly]]	105 ± 7
CN(CCC[C@@H]1NC(=O)[C@@H](Cc2ccc(O)cc2)NC(=O)CNC(=O)[C@H](Cc2ccc3ccccc3c2)NC(=O)[C@H](CCCNC(=N)N)NC1=O)Cc1ccc2ccccc2c1 [cyc[D-Tyr-Orn(Me,N2)-Arg-Nal-Gly]]	34.2
N=C(N)NCCC[C@@H]1NC(=O)[C@H](CCCNCc2ccccc2)NC(=O)[C@@H](Cc2ccc(O)cc2)NC(=O)CNC(=O)[C@H](Cc2ccc3ccccc3c2)NC1=O [cyc[D-Tyr-Orn(Bz)-Arg-Nal-Gly]]	155 ± 63
CC(F)C(=O)NCCC[C@@H]1NC(=O)[C@@H](Cc2ccc(O)cc2)NC(=O)CNC(=O)[C@H](Cc2ccc3ccccc3c2)NC(=O)[C@H](CCCNC(=N)N)NC1=O (stereo partly drawn) [cyc[D-Tyr-Orn(FP)-Arg-Nal-Gly]]	35 ± 13
CN(CCC[C@@H]1NC(=O)[C@@H](Cc2ccc(O)cc2)NC(=O)CNC(=O)[C@H](Cc2ccc3ccccc3c2)NC(=O)[C@H](CCCNC(=N)N)NC1=O)C(=O)c1ccc(F)cc1 [cyc[D-Tyr-Orn(Me,FB)-Arg-Nal-Gly]]	78 ± 25
CC(=O)NCCC[C@@H]1NC(=O)[C@@H](Cc2ccc(O)cc2)NC(=O)CNC(=O)[C@H](Cc2ccc3ccccc3c2)NC(=O)[C@H](CCCNC(=N)N)NC1=O [cyc[D-Tyr-Orn(Ac)-Arg-Nal-Gly]]	29 ± 11

same assay, conditions: Table 5, D-Orn derivatives, His, Phe; read-out: IC50

SMILES	IC50 [nM]
N=C(N)NCCC[C@@H]1NC(=O)[C@H](Cc2ccccc2)NC(=O)[C@@H](Cc2ccc(O)cc2)NC(=O)CNC(=O)[C@H](Cc2ccc3ccccc3c2)NC1=O [cyc[D-Tyr-Phe-Arg-Nal-Gly]]	154

same assay, conditions: Table 6, cyclic hexapeptides; read-out: IC50

SMILES	IC50 [nM]
C[C@@H]1NC(=O)[C@H](C)NC(=O)[C@H](Cc2ccc3ccccc3c2)NC(=O)[C@H](CCCNC(=N)N)NC(=O)[C@H](CCCNC(=N)N)NC(=O)[C@@H](Cc2ccc(O)cc2)NC1=O [BL158, cyc[D-Tyr-Arg-Arg-Nal-Ala-Ala]]	114

same assay, conditions: Table 8, Gly substituted by Dap; read-out: IC50

SMILES	IC50 [nM]
N=C(N)NCCC[C@@H]1NC(=O)[C@H](CCCNC(=N)N)NC(=O)[C@@H](Cc2ccc(O)cc2)NC(=O)[C@H](CNC(=O)c2ccc(F)cc2)NC(=O)[C@H](Cc2ccc3ccccc3c2)NC1=O [Dap(FB)-8k, cyc[D-Tyr-Arg-Arg-Nal-Dap(FB)]]	350
